The record followed here is ChEMBL document CHEMBL3352590, “How a β-D-glucoside side chain enhances binding affinity to thrombin of inhibitors bearing 2-chlorothiophene as P1 moiety: crystallography, fragment deconstruction study, and evaluation of antithrombotic properties” (J Med Chem, 2014).

In this assay the target is Prothrombin (Bos taurus, UniProt P00735). The assay is described as follows: Inhibition of bovine thrombin assessed as reduction in hydrolysis of chromogenic substrate S-2238 by Lineweaver-Burk analysis.

Take `CC(C)N1CCC(C(=O)Nc2ccccc2OCc2cc(-c3ccc(Cl)s3)on2)CC1`: the inhibition constant Ki came to 18 nM.
